B1: STING1-Flag (Flag-tagged full-length STING) [not stated] / HA-tagged 1-245 NCOA4 fragment [human] (parent complex)
chain 1: MPHSSLHPSIPCPRGHGAQKAALVLLSACLVTLWGLGEPPEHTLRYLVLHLASLQLGLLLNGVCSLAEELRHIHSRYRGSYWRTVRACLGCPLRRGALLLLSIYFYYSLPNAVGPPFTWMLALLGLSQALNILLGLKGLAPAEISAVCEKGNFNVAHGLAWSYYIGYLRLILPELQARIRTYNQHYNNLLRGAVSQRLYILLPLDCGVPDNLSMADPNIRFLDKLPQQTGDHAGIKDRVYSNSIYELLENGQRAGTCVLEYATPLQTLFAMSQYSQAGFSREDRLEQAKLFCRTLEDILADAPESQNNCRLIAYQEPADDSSFSLSQEVLRHLRQEEKEEVTVGSLKTSAVPSTSTMSQEPELLISGMEKPLPLRTDFS
chain 2: MNTFQDQSGSSSNREPLLRCSDARRDLELAIGGVLRAEQQIKDNLREVKAQIHSCISRHLECLRSREVWLYEQVDLIYQLKEETLQQQAQQLYSLLGQFNCLTHQLECTQNKDLANQVSVCLERLGSLTLKPEDSTVLLFEADTITLRQTITTFGSLKTIQIPEHLMAHASSANIGPFLEKRGCISMPEQKSASGIVAVPFSEWLLGSKPASGYQAPYIPSTDPQDWLTQKQTLENSQTSSRACN

Variants of: B1
Assay: co-immunoprecipitation (Flag IP, immunoblot densitometry); HEK293T cell lysates

In order of falling ratio to parent:
1. chain 1 MPHSSLHPSIPCPRGHGAQKAALVLLSACLVTLWGLGEPPEHTLRYLVLHLASLQLGLLLNGVCSLAEELRHIHSRYRGSYWRTVRACLGCPLRRGALLLLSIYFYYSLPNAVGPPFTWMLALLGLSQALNILLGLKGLAPAEISAVCEKGNFNVAHGLAWSYYIGYLRLILPELQARIRTYNQHYNNLLRGAVSQRLYILLPLDCGVPDNLSMADPNIRFLDKLPQQTGDHAGIKDRVYSNSIYELLENGQRAGTCVLEYATPLQTLFAMSAYSQAGFSREDRLEQAKLFCRTLEDILADAPESQNNCRLIAYQEPADDSSFSLSQEVLRHLRQEEKEEVTVGSLKTSAVPSTSTMSQEPELLISGMEKPLPLRTDFS [chain 1 Q273A]  2.11
2. chain 1 MPHSSLHPSIPCPRGHGAQKAALVLLSACLVTLWGLGEPPEHTLRYLVLHLASLQLGLLLNGVCSLAEELRHIHSRYRGSYWRTVRACLGCPLRRGALLLLSIYFYYSLPNAVGPPFTWMLALLGLSQALNILLGLKGLAPAEISAVCEKGNFNVAHGLAWSYYIGYLRLILPELQARIRTYNQHYNNLLRGAVSQRLYILLPLDCGVPDNLSMADPNIRFLDKLPQQTGDHAGIKDRVYSNSIYELLENGQRAGTCVLEYATPLQTLFAMSQYSQAGFSREDRLEQAKLFCRTLEDILADAPESQNNCRLIAYQEPADDSAFSLSQEVLRHLRQEEKEEVTVGSLKTSAVPSTSTMSQEPELLISGMEKPLPLRTDFS [chain 1 S322A]  1.4
3. chain 1 MPHSSLHPSIPCPRGHGAQKAALVLLSACLVTLWGLGEPPEHTLRYLVLHLASLQLGLLLNGVCSLAEELRHIHSRYRGSYWRTVRACLGCPLRRGALLLLSIYFYYSLPNAVGPPFTWMLALLGLSQALNILLGLKGLAPAEISAVCEKGNFNVAHGLAWSYYIGYLRLILPELQARIRTYNQHYNNLLRGAVSQRLYILLPLDCGVPDNLSMADPNIRFLDKLPQQTGDHAGIKDRVYSNSIYELLENGQRAGTCVLEYATPLQTLFAMSQYSQAGFSREDRLEQAKLFCRTLEDILADAPESQNNCRLIAYQAPADDSSFSLSQEVLRHLRQEEKEEVTVGSLKTSAVPSTSTMSQEPELLISGMEKPLPLRTDFS [chain 1 E316A]  1.25
4. chain 1 MPHSSLHPSIPCPRGHGAQKAALVLLSACLVTLWGLGEPPEHTLRYLVLHLASLQLGLLLNGVCSLAEELRHIHSRYRGSYWRTVRACLGCPLRRGALLLLSIYFYYSLPNAVGPPFTWMLALLGLSQALNILLGLKGLAPAEISAVCEKGNFNVAHGLAWSYYIGYLRLILPELQARIRTYNQHYNNLLRGAVSQRLYILLPLDCGVPDNLSMADPNIRFLDKLPQQTGDHAGIKDRVYSNSIYELLENGQRAGTCVLEYATPLQTLFAMSAYSQAGFSREDRLEQAKLFCRTLEDILADAPESQNNCRLIAYQAPADDSSFSLSQEVLRHLRQEEKEEVTVGSLKTSAVPSTSTMSQEPELLISGMEKPLPLRTDFS [chain 1 Q273A, chain 1 E316A]  1.18
5. chain 1 MPHSSLHPSIPCPRGHGAQKAALVLLSACLVTLWGLGEPPEHTLRYLVLHLASLQLGLLLNGVCSLAEELRHIHSRYRGSYWRTVRACLGCPLRRGALLLLSIYFYYSLPNAVGPPFTWMLALLGLSQALNILLGLKGLAPAEISAVCEKGNFNVAHGLAWSYYIGYLRLILPELQARIRTYNQHYNNLLRGAVSQRLYILLPLDCGVPDNLSMADPNIRFLDKLPQQTGDHAGIKDRVYSNSIYELLENGQRAGTCVLEYATPLQTLFAMSAYSQAGFSREDRLEQAKLFCRTLEDILADAPESQNNCRLIAYQEPADDSAFSLSQEVLRHLRQEEKEEVTVGSLKTSAVPSTSTMSQEPELLISGMEKPLPLRTDFS [chain 1 Q273A, chain 1 S322A]  0.79
6. chain 1 MPHSSLHPSIPCPRGHGAQKAALVLLSACLVTLWGLGEPPEHTLRYLVLHLASLQLGLLLNGVCSLAEELRHIHSRYRGSYWRTVRACLGCPLRRGALLLLSIYFYYSLPNAVGPPFTWMLALLGLSQALNILLGLKGLAPAEISAVCEKGNFNVAHGLAWSYYIGYLRLILPELQARIRTYNQHYNNLLRGAVSQRLYILLPLDCGVPDNLSMADPNIRFLDKLPQQTGDHAGIKDRVYSNSIYELLENGQRAGTCVLEYATPLQTLFAMSQYSQAGFSREDRLEQAKLFCRTLEDILADAPESQNNCRLIAYQAPADDSAFSLSQEVLRHLRQEEKEEVTVGSLKTSAVPSTSTMSQEPELLISGMEKPLPLRTDFS [chain 1 E316A, chain 1 S322A]  0.68
7. chain 1 MPHSSLHPSIPCPRGHGAQKAALVLLSACLVTLWGLGEPPEHTLRYLVLHLASLQLGLLLNGVCSLAEELRHIHSRYRGSYWRTVRACLGCPLRRGALLLLSIYFYYSLPNAVGPPFTWMLALLGLSQALNILLGLKGLAPAEISAVCEKGNFNVAHGLAWSYYIGYLRLILPELQARIRTYNQHYNNLLRGAVSQRLYILLPLDCGVPDNLSMADPNIRFLDKLPQQTGDHAGIKDRVYSNSIYELLENGQRAGTCVLEYATPLQTLFAMSAYSQAGFSREDRLEQAKLFCRTLEDILADAPESQNNCRLIAYQAPADDSAFSLSQEVLRHLRQEEKEEVTVGSLKTSAVPSTSTMSQEPELLISGMEKPLPLRTDFS [chain 1 Q273A, chain 1 E316A, chain 1 S322A]  0.36
